Experimental data as given in ChEMBL document CHEMBL5223164 (ACS Med Chem Lett, 2023).
Calls of active or inactive are those of the source.

How the values were obtained:
[1] = species: Rattus norvegicus; settings: Sprague-Dawley, dose 10.0 mg/kg/day, route po, time 14.0 day
[2] = species: Rattus norvegicus; settings: Sprague-Dawley, dose 30.0 mg/kg/day, route po, time 14.0 day
[3] = species: Canis familiaris; settings: Canis lupus familiaris; Beagle; dose 6-150 mg/kg/day, route po, time 7.0 day
[4] = species: Rattus norvegicus; settings: Sprague-Dawley, dose 10.0 mg/kg/day, route po, time 10.0 day
[5] = species: Rattus norvegicus; settings: Sprague-Dawley, dose 3-30 mg/kg, route po, time 1.0 hrs
[6] = species: Rattus norvegicus; settings: Sprague-Dawley, dose 3-30 mg/kg, route po, time 3.0 hrs
[7] = species: Canis familiaris; settings: Canis lupus familiaris; Beagle; dose 150.0 mg/kg/day, route po, time 1.0 day
[8] = species: Rattus norvegicus; settings: Sprague-Dawley, dose 10.0 mg/kg/day, route po, time 2.0 day

Measured: inhibition

N#Cc1cccc(-c2ccc3ncc(-c4cc(F)cc(F)c4)c(N4CCC(N)CC4)c3c2)c1O [PALTUSOTINE]
active: [1] | [2] | [3] | [4] | [5] Dose-Dependent Effect | [6] Dose-Dependent Effect | [7] | [8]
